Experiments:
[1] = system: cannabinoid CB1 or CB2 receptors (LNCaP cell membranes); assay: [35S]GTPγS binding in LNCaP cell membranes; format: biochemical, human; details: antagonist 10 nM
Description: (§1) Binding assays with [^35S]GTPγS were performed with PC3 or LNCaP cell membranes. Both PC3 and LNCaP cells were removed from flasks by scraping and then frozen as a pellet at −20 °C until required. Before use in a radioligand-binding assay, cells were defrosted, diluted in Tris buffer (50 mM Tris–HCl, 50 mM Tris-Base) and homogenized. Protein assays were performed using a Bio-Rad Dc kit (Bio-Rad©, Watford, UK).
(§2) The measurement of ligand-stimulated [^35S]GTPγS binding to cannabinoid CB1 or CB2 receptors was adapted from methods described previously. The assays were carried out with GTPγS-binding buffer (50 mM Tris–HCl, 50 mM Tris-Base, 5 mM MgCl2, 1 mM ethylenediaminetetraacetic acid, 100 mM NaCl, 1 mM dithiothreitol and 0.1% bovine serum albumin) in the presence of [^35S]GTPγS and GDP, in a final volume of 500 μL. Binding was initiated by the addition of [^35S]GTPγS to the wells. Non-specific binding was measured in the presence of 30 μM GTPγS. The drugs were incubated in the assay for 60 min at 30 °C. The reaction was terminated by a rapid vacuum filtration method using Tris-binding buffer, as described previously, and the radioactivity was quantified by liquid scintillation spectrometry. In all the [^35S]GTPγS-binding assays, we used 0.1 nM [^35S]GTPγS, 30 μM GDP and a protein concentration of 40 μg per well for PC3 and LNCaP cell membranes. Compounds were stored at −20 °C in DMSO. […]

[2] = system: cannabinoid CB1 or CB2 receptors (PC3 cell membranes); assay: [35S]GTPγS binding in PC3 cell membranes; format: biochemical, human; details: antagonist 10 nM
Description: as §1, §2

## Cc1c(C(=O)NN2CCCCC2)nn(-c2ccc(Cl)cc2Cl)c1-c1ccc(Cl)cc1 [SR1]
[1]
  Dextral shift in the log concentration–response curve of DIM: no significant effect
[2]
  Dextral shift in the log concentration–response curve of CP 55,940: slight, but significant, dextral shift
  Dextral shift in the log concentration–response curve of DIM: no significant dextral shift

— PMC9962283, “The Plant Derived 3-3′-Diindolylmethane (DIM) Behaves as CB2 Receptor Agonist in Prostate Cancer Cellular Models” (International Journal of Molecular Sciences, 2023)
